Columns and labels:
[1] = target: Large neutral amino acids transporter small subunit 1 (Homo sapiens) (UniProt Q01650); assay: Trans-stimulation of human LAT1 expressed in TREx HEK293 cells assessed as induction of [3H]-gabapentin efflux at 200 uM after 3 mins by scintillation counting analysis relative to L-phenylalanine; type: cell-based
[2] = target: Large neutral amino acids transporter small subunit 1 (Homo sapiens) (UniProt Q01650); assay: Cis-inhibition of human LAT1 expressed in TREx HEK293 cells at 200 uM assessed as inhibition of [3H]-gabapentin uptake at 200 uM preincubated for 3 mins at 37 degC followed by washing with choline buffer and measured after 3 hrs by scintillation counting analysis relative to BCH; type: cell-based

By UniProt entry, the sequences of proteins in these tests, tags left out. Where a name states a change or a piece, a line headed by the entry shows the natural chain unless it says otherwise.
UniProt Q01650: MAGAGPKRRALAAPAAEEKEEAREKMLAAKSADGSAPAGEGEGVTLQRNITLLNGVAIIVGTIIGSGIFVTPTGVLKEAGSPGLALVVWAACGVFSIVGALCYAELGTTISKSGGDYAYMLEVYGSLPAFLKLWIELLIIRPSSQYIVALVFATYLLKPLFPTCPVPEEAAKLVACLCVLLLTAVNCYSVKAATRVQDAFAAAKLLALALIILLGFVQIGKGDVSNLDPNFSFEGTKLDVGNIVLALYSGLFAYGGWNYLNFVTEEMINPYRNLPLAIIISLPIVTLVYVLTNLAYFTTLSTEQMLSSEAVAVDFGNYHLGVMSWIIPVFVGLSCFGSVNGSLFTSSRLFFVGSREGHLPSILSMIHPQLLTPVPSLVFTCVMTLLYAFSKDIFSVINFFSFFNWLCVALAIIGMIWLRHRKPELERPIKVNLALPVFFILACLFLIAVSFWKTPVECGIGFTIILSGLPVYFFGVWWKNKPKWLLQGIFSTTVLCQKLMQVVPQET

| SMILES | Activity [1] [%] | inhibition [2] [%] |
| --- | --- | --- |
| N[C@H](CC1CCCCC1)C(=O)O | 130 | 42 |
| N[C@@H](CC1CCCCC1)C(=O)O | 120 | 32 |
| Cn1cnc(C[C@H](N)C(=O)O)c1 | 85 | – |
| N[C@@H](Cc1ccc(C(=O)O)cc1)C(=O)O | 20 | 8.9 |
| N[C@@H](Cc1ccncc1)C(=O)O | 89 | 99 |

Further lines, results first:

| Activity [1] [%] | inhibition [2] [%] | SMILES |
| --- | --- | --- |
| 100 | – | C[C@](N)(Cc1ccccc1)C(=O)O |
| 140 | 84 | N[C@@H](Cc1ccccn1)C(=O)O |
| 100 | – | C[C@@](N)(Cc1ccccc1)C(=O)O |
| 130 | 98 | N[C@@H](Cc1cccnc1)C(=O)O |
